The text below walks through data of ChEMBL document CHEMBL1147643 (J Med Chem, 2006).

By UniProt entry, the sequences of proteins in these tests, tags left out.
UniProt P0DMS8, whole entry: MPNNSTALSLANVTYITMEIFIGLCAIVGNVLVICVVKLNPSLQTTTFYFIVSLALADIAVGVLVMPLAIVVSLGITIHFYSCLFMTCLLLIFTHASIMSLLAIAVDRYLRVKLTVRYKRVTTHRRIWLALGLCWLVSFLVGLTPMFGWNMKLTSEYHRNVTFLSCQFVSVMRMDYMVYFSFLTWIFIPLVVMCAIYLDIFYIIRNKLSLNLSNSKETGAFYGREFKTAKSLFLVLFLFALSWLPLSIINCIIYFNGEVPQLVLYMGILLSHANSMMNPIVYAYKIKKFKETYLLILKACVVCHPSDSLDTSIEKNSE

The target in experiment [1] is T1, Adenosine receptor A3 (Homo sapiens, UniProt P0DMS8). The experiment can be described thus: Protection against stimulated ischemia in chick cardiomyocytes transfected with human adenosine A3 receptor measured as percent of killed cells. The experiment is classed as functional, cell-based.
Experiment [2] has as its target T1, Adenosine receptor A3. Put plainly: Protection against stimulated ischemia in chick cardiomyocytes transfected with human adenosine A3 receptor H272E mutant by activation of PLD pathway at 100 uM. The experiment is classed as functional, cell-based.

The structures appear in SMILES notation. The source made the active and inactive calls. The calls are words filed in the database; no cut-off is given here.

`Nc1ncnc2c1ncn2[C@@H]1O[C@H](CO)[C@@H](O)[C@H]1O` showed an Activity on Adenosine receptor A3 [1] of 10%. For the same compound, the outcome at Adenosine receptor A3 [2] was inactive.
